The chains behind the UniProt entries cited, without tags or fusion partners. Where a name states a change or a piece, a line headed by the entry shows the natural chain unless it says otherwise.
UniProt O75469: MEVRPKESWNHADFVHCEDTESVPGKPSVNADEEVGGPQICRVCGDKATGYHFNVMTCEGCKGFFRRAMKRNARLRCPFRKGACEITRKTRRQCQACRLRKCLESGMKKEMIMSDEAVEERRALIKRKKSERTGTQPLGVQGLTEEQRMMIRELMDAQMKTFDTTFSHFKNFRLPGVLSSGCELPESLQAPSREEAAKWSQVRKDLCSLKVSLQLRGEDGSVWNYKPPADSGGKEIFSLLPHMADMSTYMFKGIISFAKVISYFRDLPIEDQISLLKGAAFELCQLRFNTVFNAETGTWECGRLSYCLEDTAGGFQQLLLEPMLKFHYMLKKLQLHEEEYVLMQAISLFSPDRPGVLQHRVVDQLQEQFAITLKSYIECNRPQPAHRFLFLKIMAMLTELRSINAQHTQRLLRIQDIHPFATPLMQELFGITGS

According to patent US20250282736A1 (published 2025):

How the values were obtained:
hPXR [1] = biological target: T1, hPXR (Homo sapiens (Human), UniProt O75469); experiment: cell-based hPXR antagonistic assay
hPXR [2] = biological target: T1, hPXR; experiment: hPXR binding assay
hPXR [3] = biological target: T1, hPXR; experiment: cell-based hPXR agonistic assay; conditions: for EC50: read-out: Agonist (EC50/μM), cell-based hPXR agonistic assay
hPXR [4] = biological target: T1, hPXR; experiment: cell-based hPXR inverse agonistic assay

Row | IC50 (hPXR [2]; read-out: Binding (IC50/μM), hPXR binding assay) [µM] | Agonist (% activation at 10 μM) (hPXR [3]; at 10 μM, rifampicin at 10 μM as 100% activation, DMSO (0.3%) as 0%) | SMILES | IC50 (hPXR [1]) [µM] | IC50 (hPXR [2]) [µM] | EC50 (hPXR [3]) [µM] | IC50 (hPXR [4]) [µM]
1 | – | – | CCCCOc1ccc(C(C)(C)C)cc1NC(=O)c1nnn(-c2ccc(OC)c(OC)c2)c1C [H17] | > 30 | > 30 | 4.38 ± 0.08 | > 30
2 | 0.53 | (36 ± 5)% | CCCCOc1ccc(C(C)(C)C)cc1NC(=O)c1nnn(-c2cccc(OC)c2)c1C [H7] | > 30 | – | 3.67 ± 0.74 | > 30
